Assay results published in patent US8877802B2 (priority 2005, dated 2014).

Legend:
[1] = tested on: DA-depleted DAT-KO (DDD) mice; conditions: high doses, catalepsy, grasping and akinesia tests
[2] = tested on: DA-depleted DAT-KO (DDD) mice; assay: Locomotor activity (forward locomotion, distance traveled) in DDD mice; conditions: NE- and 5-HT-related drugs, data not shown

Compound | manifestations of akinesia and rigidity [1] | effect in tests of forward locomotion or akinesia and rigidity [2]
(6)-6-hydroxy-3,4-methylenedioxyamphetamine HCl | effective in reducing manifestations of akinesia and rigidity | 
b-ethyltryptamine |  | none were effective
CCNC(C)Cc1ccc2c(c1)OCO2.Cl (stereo not drawn) | effective in reducing manifestations of akinesia and rigidity | 
